Reference: patent KR20220001106A

Protein sequences, listed by entry. Tags and fused reporters are not part of them. Chains listed by the source or under a name are the forms on record and can include a tag or linker.
UniProt P15692, other isoform, or with tags, fused parts or gaps limits assumed: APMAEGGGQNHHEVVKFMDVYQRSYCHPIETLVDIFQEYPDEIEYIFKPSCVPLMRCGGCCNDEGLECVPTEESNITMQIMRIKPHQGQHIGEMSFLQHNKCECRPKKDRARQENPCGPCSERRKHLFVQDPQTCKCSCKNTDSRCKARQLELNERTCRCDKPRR

How the values were obtained:
[1] = molecular target: recombinant human VEGF165 (Sino biological) (human) (UniProt P15692); assay: Octet red96E BLI, VEGF165 amine-coupled on AR2G sensor, antibody as analyte, 30 C
[2] = molecular target: recombinant human VEGF165 (Sino biological) (human) (UniProt P15692); assay: cell-based or functional assay

Row | Kd [1] [nM] | koff [1] [s⁻¹] | kon [1] [M⁻¹ s⁻¹] | IC50, inhibition of VEGF-induced calcium increase in HUVEC cells [2] [nM] | Substance
1 | 0.0148 | 5.92e-06 | 400000 |  | Lucentis-Ig (antibody)
2 |  |  |  | 1.2 | 베바시주맙(아바스틴) (antibody)
